# Source: paper PMC12477777, “Human exposure to green spaces and monoterpenes: discovery and use of α-pinene metabolites as biomarkers” (Environment international, 2025)
# Experiments:
# [1] = Kinetic modeling of urinary aPM with a pseudo one-compartment nonlinear mixed-effects model after α-pinene inhalation; type: in vivo; details: human urine after α-pinene inhalation
# Description: In this equation, i represents the participant index, j the urine sample index, C the creatinine-normalized peak response, and t the sample collection time ( h).Ka denotes the first-order generation constant ( h^−1 ), and Ke denotes the first-order elimination rate constant h^−1 . F indicates the fraction of specific aPM relative to absorbed α-pinene. The variables D and V refer to the absorbed α-pinene amount and the distribution volume, respectively. Because input data were derived from relative quantification, absolute values of D , V , and F were not available. For simplicity, D and V were fixed at 100 and 1, respectively, and F was normalized relative to the sum of all detected aPM. The error term ε accounts for residual variation.
# [2] = Urinary aPM after 4 h greenness (forest) exposure; type: in vivo; parameters: Maximum response: unit not given here; details: human urine
# Protocol: (§1) Briefly, for controlled inhalation experiments, eight healthy volunteers were exposed to α-pinene in a custom-built exposure chamber via inhalation from a 15 ml conical tube, containing approximately 100 μl α-pinene, for a duration of 10 min. Urine samples were collected before exposure (0 h) and 0.5, 1, 2, 3, and 4 h after exposure. […] Urine samples were collected both before (0 h) or 4 h after exposure. After collection, the urine samples were centrifuged and stored at −80 °C before analysis. […] Demographic information, including sex, age and race, can be found in Table S1.
# Briefly, after 1:10 dilution, urine samples were separated using an Acquity I-Class UPLC system with an Acquity Premier CSH C18 UPLC column (Waters, MA) with a gradient comprising 0.1 % formic acid in water as the solvent A and 0.1 % formic acid in acetonitrile as the solvent B. Mass Spectrometry Elevated Energy (MS^E) data were collected using a Waters Synapt XS MS (Waters, MA) with an ESI ion source operated in the negative mode. Subsequent analyses of raw files were performed using UNIFI 1.9 and Progenesis QI 3.0 (both from Waters, MA). […]
# Relative quantification of aPM was performed based on the peak responses normalized to urinary creatinine levels. Urinary creatinine levels were measured using an Ace Axcel Clinical Chemistry System with ACE Creatinine Reagent from Alfa Wassermann (West Caldwell, NJ). […]
# [3] = aPM in mouse urine after i.p. injection of (+)-α-pinene or (−)-α-pinene; type: in vivo, mice (C57BL/6); details: mouse urine collected overnight
# Protocol: Mouse urine was collected after exposures to either (+) or (−) α-pinene to distinguish between metabolites of different enantiomers of α-pinene. Adult male mice (C57BL/6) were intraperitoneally administered with 50 mg/kg body weight of (+)-α-pinene or (−)-α-pinene dissolved in 100 μl sterile saline with 1 % Tween 80.
# [4] = Relative quantification of urinary aPM (UPLC-QTOF-MS, creatinine-normalized) after controlled α-pinene inhalation; type: in vivo, human
# Protocol: as §1
# Briefly, after 1:10 dilution, urine samples were separated using an Acquity I-Class UPLC system with an Acquity Premier CSH C18 UPLC column (Waters, MA) with a gradient comprising 0.1 % formic acid in water as the solvent A and 0.1 % formic acid in acetonitrile as the solvent B. Mass Spectrometry Elevated Energy (MS^E) data were collected using a Waters Synapt XS MS (Waters, MA) with an ESI ion source operated in the negative mode. Subsequent analyses of raw files were performed using UNIFI 1.9 and Progenesis QI 3.0 (both from Waters, MA). To validate LC-MS performance, one quality control (QC) sample, prepared by pooling equal amount of each urine sample, was injected after every ten urine sample injections.
# Relative quantification of aPM was performed based on the peak responses normalized to urinary creatinine levels. Urinary creatinine levels were measured using an Ace Axcel Clinical Chemistry System with ACE Creatinine Reagent from Alfa Wassermann (West Caldwell, NJ). Statistical analyses, including ANOVA and Student’s t-tests, were conducted using SAS 9.4 (SAS Institute, NC) to explore differences in aPM across various time points. […] A threshold for statistical significance was defined as p < 0.05.
# [5] = human urine after α-pinene inhalation
substance,measurement,setting,value
α-Pinene-O-GlcA [aPM2a],"Ka, first-order generation constant",[1],2.69 ± 0.68 h⁻¹
same,Frequency of occurrence,[2],25.0%
same,Maximum response,[2],445
same,"(1R)-(+)-α-Pinene (Average), proportion of aPM in mouse urine",[3]; 50 mg/kg i.p. (+)-α-pinene,0.0%
same,"(1S)-(−)-α-Pinene (Average), proportion of aPM in mouse urine",[3]; 50 mg/kg i.p. (−)-α-pinene,0.0%
same,Frequency of occurrence (percentage of samples with analyte detected),[4]; [5],75.0%
same,Maximum response (highest peak response across all urine samples),[4]; [5],13299
same,Proportion (observed) after α-pinene inhalation,"[4]; share of total response of 22 aPM, averaged over post-exposure samples",0.3%
